# Results taken from patent publication US20170107254A1, “Modified Antimicrobial Peptides” (priority 2014, published 2017).
# Test system: human red blood cells (hRBC)
# Assay: Haemolysis of human red blood cells
# Settings: lipid alone at 200 μg/ml
smiles,measurement,value
"CCCCCCCC(=O)O [Octanoic (C8), Octanoic]",% Haemolytic Activity at 3 h,35%
